Results reported in US20250255961A1, “METHODS TO STIMULATE IMMUNE RESPONSES TO MUTANT RAS USING NUCLEATED CELLS” (STEMCELL TECHNOLOGIES CANADA INC., priority 2020, published 2025).
Entries after “also recorded” stand apart in the source; their conditions may differ.

Test system: immune cells extracted from HLA-A*11+ transgenic mice
Experiment: IFN-γ ELISPOT of immune cells extracted from vaccinated HLA-A*11 transgenic mice
Format: in vivo
Excerpt: HLA-A*11 transgenic mice were vaccinated twice (prime/boost; 1 mouse) or 3 times (prime/boost/boost; 3 mice) at 2-week intervals with an emulsion of K-Ras G12C^7-16 peptide, hepatitis B virus core peptide (TPPAYRPPNAPIL; SEQ ID NO:18), and incomplete Freund's Adjuvant. One week after the final vaccination, mice were euthanized, where the spleens and draining lymph nodes were extracted, and tissue extracts were dissociated into single cell suspensions.
(§1) In a first experiment, cell extracts were then plated on an ELISpot plate, and cultured overnight at 37° C. with medium only (negative control), or with medium containing wild type K-Ras^7-16 peptide, or K-Ras G12C^7-16 peptide. The plate was then developed/quantified according to manufacturer's instructions.
as §1, with “Alternatively, cells” for “In a first experiment, cell”, “extracts were cultured for 6 days at 37° C. in the presence of K-Ras G12C^7-16 peptide. Following this incubation, cells” for “extracts”

VVVGACGVGK [K-Ras G12C^7-16]
numbers of IFN-γ expressing responder cells upon co-culture with K-Ras G12C^7-16 peptide (Example 9, FIG. 9A, mice vaccinated with emulsion of K-Ras G12C^7-16 peptide, hepatitis B virus core peptide and incomplete Freund's Adjuvant, cells cultured overnight with peptide): increased amount; also recorded: significantly increased numbers | numbers of IFN-γ expressing responder cells upon 6 days of co-culture with K-Ras G12C^7-16 peptide (Example 9, FIG. 9B, mice vaccinated with emulsion of K-Ras G12C^7-16, cells cultured 6 days with peptide before ELISpot): significantly increased numbers; also recorded: increased number
